# From patent publication US4626283A, “Corrosion and marine growth inhibiting compositions” (Engelhard Corporation, priority 1985, dated 1986)
# Assay: Water solubility, modified ASTM-D1766
substance,measurement,setting,value
Zinc Dodecanedioate Triethanolamine,Solubility description,Table VI,PINS (practically insoluble (<.1 g/100cc H2 O))
same,Solubility,modified ASTM-D1766,.001 g/100cc H2 O
